Source: US20140241987A1

Columns and labels:
[1] = target: Syn-O4; assay: inhibition ELISA: soluble fibrils titrated, preincubated with 10 ng/ml Syn-O4, then plate coated with α-synuclein fibrils
[2] = target: Syn-O1; assay: inhibition ELISA: soluble fibrils titrated, preincubated with 10 ng/ml Syn-O1, then plate coated with α-synuclein fibrils
[3] = target: Syn-O3; assay: inhibition ELISA: soluble fibrils titrated, preincubated with 10 ng/ml Syn-O3, then plate coated with α-synuclein fibrils
[4] = target: Syn-O2; assay: inhibition ELISA: soluble fibrils titrated, preincubated with 10 ng/ml Syn-O2, then plate coated with α-synuclein fibrils
[5] = target: Syn-O2; assay: inhibition ELISA: monomers titrated, preincubated with 10 ng/ml Syn-O2, then plate coated with α-synuclein fibrils
[6] = target: Syn-F1; assay: inhibition ELISA: monomers titrated, preincubated with 10 ng/ml Syn-F1, then plate coated with α-synuclein fibrils
[7] = target: Syn-O1; assay: inhibition ELISA: monomers titrated, preincubated with 10 ng/ml Syn-O1, then plate coated with α-synuclein fibrils
[8] = target: Syn-O4; assay: inhibition ELISA: monomers titrated, preincubated with 10 ng/ml Syn-O4, then plate coated with α-synuclein fibrils
[9] = target: Syn-F2; assay: inhibition ELISA: monomers titrated, preincubated with 10 ng/ml Syn-F2, then plate coated with α-synuclein fibrils
[10] = target: Syn-O3; assay: inhibition ELISA: monomers titrated, preincubated with 10 ng/ml Syn-O3, then plate coated with α-synuclein fibrils

IC50 [1] [nM] | IC50 [2] [nM] | IC50 [3] [nM] | IC50 [4] [nM] | Substance | IC50 [5] [nM] | IC50 [6] [nM] | IC50 [7] [nM] | IC50 [8] [nM] | IC50 [9] [nM] | IC50 [10] [nM]
0.52 | 0.37 | 0.47 | 0.12 | α-synuclein fibrils (from UniProt P37840 1-140) | – | – | – | – | – | –
– | – | – | – | α-synuclein monomers (from UniProt P37840 1-140) | 3280 | 2080 | 4790 | 3600 | 3710 | 5330
